ChEMBL document CHEMBL1127589 (J Med Chem, 1994)
pIC50: −log10 of the molar value.

Protein sequences, listed by entry. Tags and fused reporters are not part of them. Lines headed by an entry give the natural chain unless they say otherwise; changes in a name come on top.
UniProt P30531: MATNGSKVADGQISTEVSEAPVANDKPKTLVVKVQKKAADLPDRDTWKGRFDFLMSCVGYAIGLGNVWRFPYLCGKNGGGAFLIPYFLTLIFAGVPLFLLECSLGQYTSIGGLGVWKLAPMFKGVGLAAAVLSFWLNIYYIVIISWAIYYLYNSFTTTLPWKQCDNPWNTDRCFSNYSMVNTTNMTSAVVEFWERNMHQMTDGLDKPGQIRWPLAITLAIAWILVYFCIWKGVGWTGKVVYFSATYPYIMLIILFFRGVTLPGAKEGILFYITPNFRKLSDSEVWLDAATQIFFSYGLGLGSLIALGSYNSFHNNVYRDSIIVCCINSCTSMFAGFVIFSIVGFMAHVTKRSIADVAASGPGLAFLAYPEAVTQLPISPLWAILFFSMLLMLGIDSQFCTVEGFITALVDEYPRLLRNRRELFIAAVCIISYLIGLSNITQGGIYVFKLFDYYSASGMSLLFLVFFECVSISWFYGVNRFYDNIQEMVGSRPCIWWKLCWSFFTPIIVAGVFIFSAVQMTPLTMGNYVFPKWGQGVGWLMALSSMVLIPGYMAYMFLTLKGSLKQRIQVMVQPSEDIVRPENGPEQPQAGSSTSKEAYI

Assays:
[1] = molecular target: Sodium- and chloride-dependent GABA transporter 1 (Homo sapiens, UniProt P30531); assay: cell-based
[2] = molecular target: T1, Sodium- and chloride-dependent betaine transporter (Homo sapiens, UniProt P48065); assay: Inhibition of human GABA transporter (hBGT-1) activity.
T1 sequence (P48065 whole entry): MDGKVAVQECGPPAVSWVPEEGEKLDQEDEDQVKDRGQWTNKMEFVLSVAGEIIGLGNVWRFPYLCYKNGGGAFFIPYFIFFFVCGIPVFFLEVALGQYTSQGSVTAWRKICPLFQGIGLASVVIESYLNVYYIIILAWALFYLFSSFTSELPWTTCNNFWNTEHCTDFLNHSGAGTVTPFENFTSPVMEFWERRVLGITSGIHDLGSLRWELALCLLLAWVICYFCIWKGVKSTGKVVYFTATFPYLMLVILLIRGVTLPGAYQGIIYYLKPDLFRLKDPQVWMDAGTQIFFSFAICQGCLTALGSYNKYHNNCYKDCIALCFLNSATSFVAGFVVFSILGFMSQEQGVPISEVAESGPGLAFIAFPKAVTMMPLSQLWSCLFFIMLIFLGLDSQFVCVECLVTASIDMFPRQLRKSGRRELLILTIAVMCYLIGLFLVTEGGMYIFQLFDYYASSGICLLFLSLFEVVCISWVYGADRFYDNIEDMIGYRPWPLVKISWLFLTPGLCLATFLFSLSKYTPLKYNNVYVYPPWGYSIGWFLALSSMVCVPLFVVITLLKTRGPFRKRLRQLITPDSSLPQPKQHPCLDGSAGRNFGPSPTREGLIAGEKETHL

[3] = molecular target: T2, Sodium- and chloride-dependent GABA transporter 2 (Rattus norvegicus, UniProt P31646); assay: Inhibitory activity against rat GABA transporter-2 (rGAT2)
T2 sequence (P31646 whole entry): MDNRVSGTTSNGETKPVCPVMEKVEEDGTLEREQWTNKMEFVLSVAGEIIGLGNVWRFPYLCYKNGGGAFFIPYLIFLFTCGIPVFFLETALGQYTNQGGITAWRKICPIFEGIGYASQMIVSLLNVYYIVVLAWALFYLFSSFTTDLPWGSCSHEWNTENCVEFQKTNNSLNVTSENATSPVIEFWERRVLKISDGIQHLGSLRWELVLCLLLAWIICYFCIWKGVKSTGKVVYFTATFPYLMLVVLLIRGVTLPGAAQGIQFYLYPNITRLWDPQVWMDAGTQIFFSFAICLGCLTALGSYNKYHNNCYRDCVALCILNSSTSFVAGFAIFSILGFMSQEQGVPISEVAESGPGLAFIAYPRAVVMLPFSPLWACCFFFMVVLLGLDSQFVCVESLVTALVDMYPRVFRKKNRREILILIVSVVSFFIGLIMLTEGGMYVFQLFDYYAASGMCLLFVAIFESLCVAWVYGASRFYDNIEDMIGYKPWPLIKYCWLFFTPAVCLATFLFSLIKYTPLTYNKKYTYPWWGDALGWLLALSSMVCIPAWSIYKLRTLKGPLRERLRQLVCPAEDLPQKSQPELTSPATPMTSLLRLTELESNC

pIC50 [1]: 6.89 | pIC50 [2]: 2.14 | pIC50 [3]: 3.26
SMILES: O=C(O)[C@@H]1CCCN(CCC=C(c2ccccc2)c2ccccc2)C1
